# Apparent affinities of Ab-14 variants for a coronavirus HR2 peptide

Target peptide (SARS-CoV-2 spike, HR2 region): PDVDLGDISGINAS

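Phage display of a naive human antibody library on the peptide gave the parent. This is the validation round: designs drawn from the data on random variants, tested in the same kind of assay. Group labels follow the data file (Ctrl: baseline library sampled from a position-specific scoring matrix, with some repeated check sequences; Rand: our label for a block that the file lists under HC and that is probably the random mutants of the ten best first-round binders; En: ensemble of fine-tuned language models; GP: Gaussian process model; GPLM: also part of the Gaussian process libraries; HC: hill climbing; Gen: genetic algorithm; Gibbs: Gibbs sampling; a sequence that several methods proposed may carry one label only). The scFvs were displayed on barcoded MATa yeast, the peptide on MATalpha yeast. After mating in shaken culture at 30 °C for 16 h, diploids were selected and their barcode pairs sequenced. A regression on co-assayed BCL2-family reference pairs converts the normalised counts of each replicate to an apparent Kd. The assay was run in six technical replicates.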

Parent scFv Ab-14: VH joined to VL by three GGGGS repeats. Changes lie in the heavy chain CDRs alone.
VH: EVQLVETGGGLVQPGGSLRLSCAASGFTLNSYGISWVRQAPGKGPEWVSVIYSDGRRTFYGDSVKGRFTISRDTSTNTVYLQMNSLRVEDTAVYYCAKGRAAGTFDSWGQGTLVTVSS
VL: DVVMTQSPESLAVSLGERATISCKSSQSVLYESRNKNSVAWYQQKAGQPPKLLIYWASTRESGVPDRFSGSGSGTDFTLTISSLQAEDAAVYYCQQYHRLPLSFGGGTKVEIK

The parent's heavy chain CDRs are GFTLNSYGIS, VIYSDGRRTFYGDSVK, GRAAGTFDS; each variant's own CDRs replace them letter for letter.
The read-out is the apparent dissociation constant on a log10 scale (nM): the lower, the stronger.
Replicates are averaged; those with no signal do not enter the mean.
An entry "nd" has no value in the source: the pair was not observed among the diploids in any replicate. This suggests poor binding but is not conclusive.
Order: sorted from the lowest average up, undetected variants last.
The range of this assay differs from that of the first round, and the authors advise against merging the two.
Three control strains display no target. For all heavy chain designs, 1% of the pairings with them gave a signal, with a median of 2.08 and one signal in twenty below 0.84, so weak values seen in few replicates may be background. For each scFv, signals with the empty controls are counted beside the result.
Of ten entries with the parent sequence, four were seen in most replicates (averages 0.34 to 2.37), three in one and three in none, so single entries are noisy.
In the paper, a design with two or fewer of six values counts as a poor binder.

For GFDLNEYGIS | VIYADGVRKVYADSVK | GNVAGTFDV [En_Gen], the assay gave -1.02 (6 of 6 replicates; controls 0 of 18).
For GFDLNEYGIS | VIYADGRRTFYSDSVK | GTTGGTFDI [En_HC], the assay gave -0.20 (6 of 6 replicates; controls 1 of 18).
For GFTLNDYGIS | VIYSDGRRTAYGDSVK | GHAAGTFDS [Ctrl], the assay gave -0.01 (6 of 6 replicates; controls 1 of 18).
For GFDLNEYGIS | VIYADGVRTQYADSVK | GNVAGTFDV [En_Gen], the assay gave 0.06 (6 of 6 replicates; controls 0 of 18).
For GFDLNEYGIS | VIYADGMRTFYADSVK | GEVAGTFDV [En_Gen], the assay gave 0.07 (6 of 6 replicates; controls 0 of 18).
For GFELNSYGIS | VIYSDGRRTFYADTVK | GRTAGTFDS [GP_Gen], the assay gave 0.12 (6 of 6 replicates; controls 1 of 18).
For GFDLNEYGIS | VIYADGRRTAYIDSVK | GHQAGTFDS [En_HC], the assay gave 0.20 (6 of 6 replicates; controls 0 of 18).
For GFALNEYGIS | VIYSDGRRTFYGDSVK | GRQAGTFDS [GP_Gen], the assay gave 0.20 (6 of 6 replicates; controls 1 of 18).
For GFGLNSYGIS | VIYSDGRRTFYSDSVK | GHAAGTFDS [GP_HC], the assay gave 0.36 (6 of 6 replicates; controls 0 of 18).
For GFDLDEYGIS | VIYADGRRTFYTDSVK | GSNAGTFDM [En_HC], the assay gave 0.41 (6 of 6 replicates; controls 0 of 18).
For GFDLNEYGIS | VIYADGLRTYYDDSVK | GQLAGTFDQ [En_HC], the assay gave 0.42 (5 of 6 replicates; controls 0 of 18).
For GFDLNSYGIS | VIYSDGRRTFYGDSVK | GEAAGTFDS [GPLM_Gen], the assay gave 0.56 (6 of 6 replicates; controls 0 of 18).
For GFTLNDYGIS | VIYADGRRTFYGDSVK | GRAAGTFDI [GP_HC], the assay gave 0.66 (5 of 6 replicates; controls 0 of 18).
For GFSLNSYGIS | VIYSDGCRTFYTDSVK | GNAAGTFDS [GP_Gibbs], the assay gave 0.77 (6 of 6 replicates; controls 0 of 18).
For GFDLNEYGIS | VIYADGMRTAYSDDVK | GGNAGTFDI [En_Gen], the assay gave 1.03 (6 of 6 replicates; controls 0 of 18).
For GFTLNSYGIS | VIYSDGRRTFYGDSVK | GQVAGTFDT [GPLM_Gen], the assay gave 1.18 (6 of 6 replicates; controls 0 of 18).
For GFTLNEYGIS | VIYSDGRRTFYGDSVK | GREAGTFDN [GP_HC], the assay gave 1.23 (1 of 6 replicates; controls 0 of 18).
For GFTLNTYGIS | VIYSDGRRTGYGDSVK | GRAAGTFDS [Ctrl], the assay gave 1.63 (4 of 6 replicates; controls 1 of 18).
For GFVLNSYGIS | VIYSDGRRTFYGDNVK | GQTAGTFDS [GP_Gibbs], the assay gave 1.70 (6 of 6 replicates; controls 0 of 18).

Further variants, results first:

2.07 (1 of 6 replicates; controls 0 of 18) for GFDLAEYGIS | VIYADGSRTAYNQNVK | GLKGDSFDI [En_Gibbs].
2.14 (1 of 6 replicates; controls 0 of 18) for GFTDDDYGIS | VIYVDGDRTFYGDSVK | GRAAGNVLS [Rand].
2.32 (5 of 6 replicates; controls 1 of 18) for GFTINEYGIS | VIYADGKRVEYNDKVK | GMLAGTFDQ [En_Gibbs].
2.35 (4 of 6 replicates; controls 0 of 18) for GFTINSYGIS | VIYSDGRRTFYGDSVK | GEAAGTFDS [Ctrl].
2.53 (2 of 6 replicates; controls 0 of 18) for GFMLTSYGIS | VIYSDGRRTFYGDSVK | GKAAGTFDS [Ctrl].
2.66 (2 of 6 replicates; controls 0 of 18) for GFTLNSYGIS | VIYSDGRRTFYIDSVK | GRSAGTFDS [GP_HC].
nd (0 of 6 replicates; controls 2 of 18) for GFNLSEYGIS | VIYADGMRSNYADSVK | GHSGNFFID [En_Gibbs].
nd (0 of 6 replicates; controls 0 of 18) for GFQLEEYGIS | VIYADGSRTEYSDSVK | GKYKFNLIV [En_Gibbs].
nd (0 of 6 replicates; controls 0 of 18) for GQDLNEYGIS | VIYADGQRTSYAQSVK | GAGDITGLV [En_Gibbs].
nd (0 of 6 replicates; controls 0 of 18) for GFTLNSYGDS | VVYSDERRTFYSDPVK | GRAGGTFDS [Rand].
nd (0 of 6 replicates; controls 0 of 18) for GFYLNEYGIS | VIYADGQRKVYANNVK | GNFGGLQDY [En_Gibbs].
nd (0 of 6 replicates; controls 0 of 18) for GFTLNQYGIS | VIYSDGIRTFYGDSVK | GRAGGTFDS [Ctrl].
nd (0 of 6 replicates; controls 1 of 18) for GFTLNDYGIS | VIYSDGRRVFIGDSVK | GRAAGTYDS [Ctrl].
nd (0 of 6 replicates; controls 1 of 18) for GFELDEYGIS | VIYADGTRKFYAQTVK | GELSGMILD [En_Gibbs].
nd (0 of 6 replicates; controls 0 of 18) for GFTLLSYGIS | VIYSDGSRTFYGDSVK | GRAAGTFES [Ctrl].
nd (0 of 6 replicates; controls 0 of 18) for GKALDEYGIS | VIYADGKRTFYSNTVK | GEDGDFYDQ [En_Gibbs].
nd (0 of 6 replicates; controls 0 of 18) for GETLNSYGIS | VIYSDGRRTFYGDSVK | GHFAGTKDS [Ctrl].
nd (0 of 6 replicates; controls 0 of 18) for GFDIEEYGIS | VIYADGRRVAYADSVK | GIDVYGKVM [En_Gibbs].
nd (0 of 6 replicates; controls 0 of 18) for GFDLMEYGIS | VIYADGERKSYAESFK | GGVNVQLGT [En_Gibbs].

For reference, 6 entries of the list once more:

The variant GFDLNEYGIS | VIYADGVRKVYADSVK | GNVAGTFDV [En_Gen] showed -1.02 (6 of 6 replicates; controls 0 of 18).
The variant GFDLNEYGIS | VIYADGMRTAYSDDVK | GGNAGTFDI [En_Gen] showed 1.03 (6 of 6 replicates; controls 0 of 18).
The variant GQDLNEYGIS | VIYADGQRTSYAQSVK | GAGDITGLV [En_Gibbs] showed nd (0 of 6 replicates; controls 0 of 18).
The variant GFTLNTYGIS | VIYSDGRRTGYGDSVK | GRAAGTFDS [Ctrl] showed 1.63 (4 of 6 replicates; controls 1 of 18).
The variant GFVLNSYGIS | VIYSDGRRTFYGDNVK | GQTAGTFDS [GP_Gibbs] showed 1.70 (6 of 6 replicates; controls 0 of 18).
The variant GFYLNEYGIS | VIYADGQRKVYANNVK | GNFGGLQDY [En_Gibbs] showed nd (0 of 6 replicates; controls 0 of 18).

Reference: Li et al. 2023, doi:10.1038/s41467-023-39022-2. File: FLAb, binding data.